# Results as given in patent US9688662B2, “N-(2,3-dihydro-1H-pyrrolo[2,3-b]pyridin-5-yl)-4-quinazolinamine and N-(2,3-dihydro-1H-indol-5-yl)-4-quinazolinamine derivatives as perk inhibitors” (Janssen Pharmaceutica NV, priority 2013, dated 2017).
# Legend:
# [1] = target: T1, PERK (Homo sapiens, UniProt Q9NZJ5); experiment: Cell-based PERK inhibition assay (TR-FRET, phosphorylation of GFP-eIF2 alpha in HEK293 cells, tunicamycin); settings: HEK293 (LanthaScreen eIF2α GripTite) cells, compounds 60 min, tunicamycin 2 microg/ml 120 min
# T1 sequence (Q9NZJ5 30-1116): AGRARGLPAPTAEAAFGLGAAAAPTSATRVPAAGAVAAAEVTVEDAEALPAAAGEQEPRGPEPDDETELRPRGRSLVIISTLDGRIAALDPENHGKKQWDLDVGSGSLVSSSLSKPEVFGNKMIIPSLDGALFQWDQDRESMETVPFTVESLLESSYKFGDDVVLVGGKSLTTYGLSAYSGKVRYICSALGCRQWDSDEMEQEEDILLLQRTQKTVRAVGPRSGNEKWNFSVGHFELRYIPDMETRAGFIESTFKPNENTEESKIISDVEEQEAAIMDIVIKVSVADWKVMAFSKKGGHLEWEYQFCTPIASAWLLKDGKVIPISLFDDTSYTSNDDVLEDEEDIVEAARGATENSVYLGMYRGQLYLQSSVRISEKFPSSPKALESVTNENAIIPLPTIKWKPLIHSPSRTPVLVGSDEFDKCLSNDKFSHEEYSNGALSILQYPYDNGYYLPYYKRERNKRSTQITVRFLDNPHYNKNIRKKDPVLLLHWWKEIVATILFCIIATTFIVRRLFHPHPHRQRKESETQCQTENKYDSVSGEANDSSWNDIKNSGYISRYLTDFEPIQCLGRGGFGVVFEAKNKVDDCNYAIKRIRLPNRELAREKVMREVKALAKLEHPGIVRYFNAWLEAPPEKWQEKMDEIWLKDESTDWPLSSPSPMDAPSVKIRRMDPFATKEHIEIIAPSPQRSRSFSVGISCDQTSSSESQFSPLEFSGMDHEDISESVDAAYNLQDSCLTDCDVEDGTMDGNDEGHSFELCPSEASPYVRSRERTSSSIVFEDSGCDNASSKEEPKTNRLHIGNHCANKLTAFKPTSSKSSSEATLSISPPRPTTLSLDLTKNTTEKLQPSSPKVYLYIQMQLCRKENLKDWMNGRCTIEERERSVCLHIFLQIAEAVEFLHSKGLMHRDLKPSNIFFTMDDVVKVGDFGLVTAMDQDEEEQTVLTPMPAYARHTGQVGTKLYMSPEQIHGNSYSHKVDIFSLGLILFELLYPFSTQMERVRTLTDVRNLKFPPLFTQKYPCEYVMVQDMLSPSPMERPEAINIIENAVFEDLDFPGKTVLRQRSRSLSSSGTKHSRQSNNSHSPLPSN
# Method: A cell-based TR-FRET assay to measure inhibition of phosphorylation of GFP-eIF2 alpha expressed in HEK293 cells by compounds was set up as follows:
# LanthaScreen® eIF2α GripTite cells (Invitrogen M4387) were plated and incubated for 16-20 h at 37° C. and 5% CO2, incubated with test compounds for 60 min, and then stimulated with tunicamycin (2 microg/ml) for 120 min. Culture medium was aspirated from the wells and, the cells were lysed in LanthaScreen® Cellular Assay Lysis Buffer (Invitrogen; PV5598), supplemented with protease inhibitor cocktail (Sigma P8340, 1/1000 dilution) and phosphatase inhibitor cocktail (Sigma P0044, 1/1000 dilution), including 2 nM terbium-labeled eIF2a pSer52 antibody (Invitrogen; PV4816).
# [2] = target: T1, PERK; experiment: In-vitro PERK enzyme inhibition assay (LanthaScreen, KIN_PERK); assay type: biochemical; design: GST (N); purchased Invitrogen PV5106; settings: recombinant GST-PERK, GFP-eIF2 alpha substrate, 5 μM ATP, 60 minutes
# Method: Pharmacology i) In-Vitro PERK Enzyme Inhibition Assay (KIN_PERK pIC50)
# The compounds of the invention were tested for inhibitory activity against PERK in an enzyme inhibition assay.
# A biochemical PERK kinase assay using LanthaScreen® technology from Invitrogen using recombinant GST-PERK (Invitrogen PV5106), GFP-eIF2 alpha (full length) as substrate (Invitrogen PV4809) and the Terbium-labeled antibody (Tb-anti-peIF2alpha (pSer52); Invitrogen PV4816) as detection reagent, was performed essentially as described by the manufacturer, using following specific parameters: […]
smiles,measurement,setting,value
"COc1cc2ncnc(Nc3ccc4c(c3)CCN4C(=O)Cc3c(C)[nH]c4ccccc34)c2cc1OC [Compound 1, 1-[5-[(6,7-dimethoxyquinazolin-4-yl)amino]indolin-1-yl]-2-(2-methyl-1H-indol-3-yl)ethanone]",P-eIF2alpha_Lantha_cell pIC50,[1],7.7
same,KIN_PERK pIC50,[2],9.1
